Data on eight molecules can be found in US9815810B1, “Method of cannabinoid preservation through crystallization and other crystal structures” (Deep Cell […]., priority 2016, dated 2017).

This data set can be described thus: Cannabinoid profile of crystalline product samples by HPLC-DAD-MS analysis (cannabinoid preservation). Particulars: sucrose, without rapid cooling process, from RB Fat.
`CCCCCc1cc(O)c2c(c1)OC(C)(CCC=C(C)C)C=C2` (centres unmarked) [CBC, Cannabichromene]: the “Cannabinoid quantity in Sample R103C” value turned out to be 0.42 mg/g.
Turning to `CCCCCc1cc(O)c(C/C=C(\C)CCC=C(C)C)c(O)c1` [CBG, Cannabigerol], the “Cannabinoid quantity in Sample R103C” value is given as 0.26 mg/g.
The figure for `CCCCCc1cc2c(c(O)c1C(=O)O)C1C3C(CCC3(C)O2)C1(C)C` (centres unmarked) [CBL-A, cannabicyclol acid] is 0.35 mg/g.
The figure for `CCCCCc1cc(O)c2c(c1)OC(C)(C)c1ccc(C)cc1-2` [CBN, Cannabinol] is 1.16 mg/g; for `CCCCCc1cc2c(c(O)c1C(=O)O)[C@@H]1C=C(C)CC[C@H]1C(C)(C)O2` [THC-A, Tetrahydrocannabinolic acid] it is 3.08 mg/g; for `CCCc1cc(O)c2c(c1)OC(C)(C)[C@@H]1CCC(C)=C[C@@H]21` [THCV, Tetrahydrocannabivarin] it is 0.15 mg/g.
As for `CCCCCc1cc(O)c2c(c1)OC(C)(C)[C@@H]1CC=C(C)C[C@@H]21` [Δ8-THC, Δ-8-tetrahydrocannabinol], the “Cannabinoid quantity in Sample R103C” value is listed as 0.18 mg/g.
The value for `CCCCCc1cc(O)c2c(c1)OC(C)(C)[C@@H]1CCC(C)=C[C@@H]21` [Δ9-THC, Δ-9-tetrahydrocannabinol, reference compound] was 15.64 mg/g.
